smiles,measurement,setting,value
O=C1N=CN=N1,solubility in formic acid compared with water,"FIG. 1, difference greater at lower temperatures",much more soluble in formic acid than it is in water
same,solubility of the product in ethanol,"ethanol, 76° C., single data point of FIG. 1",6%

# From patent publication US8178692B2
